From ChEMBL document CHEMBL1142043, “Potent and selective [2-imidazol-1-yl-2-(6-alkoxy-naphthalen-2-yl)-1-methyl-ethyl]-dimethyl-amines as retinoic acid metabolic blocking agents (RAMBAs)” (Bioorg Med Chem Lett, 2005)

Biological target: T1, Cytochrome P450 26A1 (Homo sapiens, UniProt O43174)
T1 sequence (O43174 whole entry): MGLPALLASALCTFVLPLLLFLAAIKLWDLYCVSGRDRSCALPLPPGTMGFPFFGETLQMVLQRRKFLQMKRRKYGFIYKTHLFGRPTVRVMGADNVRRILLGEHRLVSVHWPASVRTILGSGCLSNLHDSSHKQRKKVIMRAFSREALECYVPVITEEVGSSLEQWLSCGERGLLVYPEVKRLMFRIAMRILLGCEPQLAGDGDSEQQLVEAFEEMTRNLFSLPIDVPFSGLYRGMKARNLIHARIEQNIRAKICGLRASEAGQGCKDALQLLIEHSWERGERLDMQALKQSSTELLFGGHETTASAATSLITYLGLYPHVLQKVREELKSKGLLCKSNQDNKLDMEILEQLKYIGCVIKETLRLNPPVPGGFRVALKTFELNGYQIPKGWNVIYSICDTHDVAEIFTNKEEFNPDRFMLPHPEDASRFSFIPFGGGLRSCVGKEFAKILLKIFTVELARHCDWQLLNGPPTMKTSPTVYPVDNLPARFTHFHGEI
Assay: Potency towards cytochrome P 450 26 enzyme activity

An IC50 of 6 µM was found for `Clc1cccc(C(c2ccc3[nH]cnc3c2)n2ccnc2)c1` (stereo unspecified) [LIAROZOLE] in this work.
